Reference: patent US6958402B2, “3-(imidazolyl)-2-alkoxypropanoic acids” (Pfizer, Inc., priority 2002, dated 2005)

Target: T1, human CPN (Homo sapiens, UniProt P15169)
T1 sequence (P15169 21-458): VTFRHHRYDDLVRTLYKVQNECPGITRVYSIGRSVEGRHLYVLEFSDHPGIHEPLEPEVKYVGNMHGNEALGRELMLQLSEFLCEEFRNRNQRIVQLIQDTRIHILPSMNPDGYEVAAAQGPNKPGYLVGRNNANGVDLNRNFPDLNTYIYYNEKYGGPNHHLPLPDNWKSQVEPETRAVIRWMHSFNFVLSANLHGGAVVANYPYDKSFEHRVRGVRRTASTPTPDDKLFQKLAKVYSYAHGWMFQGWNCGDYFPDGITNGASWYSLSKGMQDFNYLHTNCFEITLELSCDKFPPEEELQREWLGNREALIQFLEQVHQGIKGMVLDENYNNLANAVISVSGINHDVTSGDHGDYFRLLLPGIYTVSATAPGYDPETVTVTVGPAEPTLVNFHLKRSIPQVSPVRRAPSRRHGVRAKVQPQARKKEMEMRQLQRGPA
T1 sequence (P22792 22-545 partner): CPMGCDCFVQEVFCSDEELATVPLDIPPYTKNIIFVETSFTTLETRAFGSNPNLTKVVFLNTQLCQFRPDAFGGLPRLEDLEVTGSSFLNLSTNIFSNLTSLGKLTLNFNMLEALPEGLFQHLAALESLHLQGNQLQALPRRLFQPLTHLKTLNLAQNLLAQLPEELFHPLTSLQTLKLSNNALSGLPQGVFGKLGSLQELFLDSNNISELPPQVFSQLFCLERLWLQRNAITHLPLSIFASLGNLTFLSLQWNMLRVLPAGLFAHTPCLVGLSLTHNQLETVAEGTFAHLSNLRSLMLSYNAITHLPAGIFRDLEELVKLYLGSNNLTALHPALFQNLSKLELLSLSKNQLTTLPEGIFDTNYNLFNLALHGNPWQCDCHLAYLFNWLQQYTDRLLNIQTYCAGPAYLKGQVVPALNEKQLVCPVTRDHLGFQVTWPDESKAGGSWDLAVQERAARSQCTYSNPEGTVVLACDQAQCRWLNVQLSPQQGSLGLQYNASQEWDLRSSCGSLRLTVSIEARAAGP
Experiment: CPN Ki determination (TAFIa assay with human CPN substituted for TAFIa)
Format: biochemical
Protocol: A number of different dilutions of the test compound in water were made up. To 20 μl of each dilution was added 150 μl of HEPES buffer and 10 μl of TAFIa, which was then pre-incubated for 15 minutes at 24° C. To each dilution was then added 20 μl furylacryloyl-alanyl-lysine (FAAL) at a standard concentration. Substrate turnover was measured by reading the absorbance of the reaction mixture at 330 nm every 15 seconds for 30 minutes. The reaction was performed at 24° C. and samples were mixed for 3 seconds prior to each absorbance reading.
A graph of % inhibition against test compound concentration was then plotted; from which was calculated the IC50 value. The Ki value was then calculated using the Cheng-Prusoff equation.
The selectivity of the compounds of the present invention for TAFIa over CPN was determined by calculating the Ki of the compounds of the present invention for CPN, then comparing it to the Ki for TAFIa. The Ki was calculated using the assay for the calculation of TAFIa Ki, but substituting 10 μl of human CPN for 10 μl of TAFIa.

SMILES: NCCO[C@@H](Cc1cn(CCC2CCCCC2)cn1)C(=O)O [Example 5, (2S)-(−)-2-(2-Aminoethoxy)-3-[1-(2-cyclohexylethyl)-1H-imidazol-4-yl]propanoic acid]
- Ki: > 10 µM
- Selectivity for TAFIa over CPN (Ki for CPN compared to Ki for TAFIa): >1000
